Data as given in article PMC9995496, “A screen for MeCP2-TBL1 interaction inhibitors using a luminescence-based assay” (Scientific Reports, 2023).

Test system: PRKACA-PRKAR2A interaction (SmBiT-PRKACA / LgBiT-PRKAR2A), protein kinase A
Conditions: counter-screen for NanoLuc interference; 0.5 h, 20 µM; inhibitor

N[C@@H](Cc1ccc([N+]([O-])(CCCl)CCCl)cc1)C(=O)O
Inh (PKA): 2.87%
